# AlphaSeq binding of Ab-14 light chain variants to a spike HR2 peptide

From the AlphaSeq antibody data of Li et al. 2023 (doi:10.1038/s41467-023-39022-2), copy in the FLAb collection.

Binding partner: SARS-CoV-2 spike HR2 peptide, sequence PDVDLGDISGINAS.

Each scFv is VH, the linker GGGGSGGGGSGGGGS, VL, as in the parent Ab-14, and differs from it in the CDRs of the light chain only.
VH: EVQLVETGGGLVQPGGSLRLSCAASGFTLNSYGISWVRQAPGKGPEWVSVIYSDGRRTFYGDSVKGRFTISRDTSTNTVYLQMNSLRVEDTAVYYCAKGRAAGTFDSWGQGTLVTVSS
VL: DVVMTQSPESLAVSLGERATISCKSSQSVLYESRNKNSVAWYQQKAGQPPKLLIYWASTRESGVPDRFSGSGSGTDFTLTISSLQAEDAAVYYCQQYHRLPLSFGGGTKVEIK

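The parent was found by panning a naive human phage display library on the peptide. This is the validation round: designs drawn from the data on random variants, tested in the same kind of assay. Their group label is 14L_GP_Gen (GP: Gaussian process model; Gen: genetic algorithm; a sequence that several methods proposed may carry one label only). AlphaSeq pools MATa yeast showing the antibodies with MATalpha yeast showing the peptide. The frequency of each diploid, read from paired DNA barcodes, reflects how well the two displayed proteins bind. Each replicate has its own calibration line, from reference interactions of the BCL2 family. There are six technical replicates.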

Each variant is given by its three light chain CDRs, as the data file delimits them; those of the parent are KSSQSVLYESRNKNSVA, WASTRES, QQYHRLPLS.
Values are log10 of the apparent Kd in nM; lower means stronger binding.
In the paper, a design with two or fewer of six values counts as a poor binder.
The range of this assay differs from that of the first round, and the authors advise against merging the two.
Empty control strains, which show no peptide, gave a signal in 4% of pairings with all light chain designs; the median was 2.64 and 95% of these signals were weaker than 1.59. No background was subtracted. Also given: how often the same scFv was detected with the empty control strains, with their mean in brackets.
The parent sequence was in this pool as ten entries: three were never detected, three once, and four in most replicates, with averages from 0.34 to 2.37.

{"CDR-L1": "KFSQSVLYESRNKNSVA", "CDR-L2": "NASQRMS", "CDR-L3": "QQYHRLPLS", "log10 Kd, replicates": "1.04 0.12 0.78 0.07 0.02 0.55", "empty controls": "0/18"}
{"CDR-L1": "KLPQSDLYESRNKNSVA", "CDR-L2": "SASTRES", "CDR-L3": "QQYHRLPLS", "log10 Kd, replicates": "-0.13 -0.04 0.03 -0.65 -0.39 -0.24", "empty controls": "0/18"}
{"CDR-L1": "KVSQSELYESRMKNSVA", "CDR-L2": "NASQRES", "CDR-L3": "QQYHRLPLS", "log10 Kd, replicates": "0.74 0.27 0.37 0.57 0.24 0.53", "empty controls": "0/18"}
{"CDR-L1": "KFSQSDLYESRNKNSVA", "CDR-L2": "NASTRES", "CDR-L3": "QQYHRLPLS", "log10 Kd, replicates": "0.37 0.25 0.26 0.38 0.14 0.62", "empty controls": "0/18"}
{"CDR-L1": "KFMQSELYESRNKNSVA", "CDR-L2": "NASQRES", "CDR-L3": "QQYHRLPLS", "log10 Kd, replicates": "0.86 0.44 0.41 0.36 0.52 0.56", "empty controls": "0/18"}
{"CDR-L1": "KVSPSELYESRNKNSVA", "CDR-L2": "NASTRES", "CDR-L3": "QQYHRLPLS", "log10 Kd, replicates": "0.92 0.70 0.72 0.69 0.94 1.50", "empty controls": "2/18 (2.60)"}
{"CDR-L1": "KLSQSVMYEDRNKNSVA", "CDR-L2": "NASTRES", "CDR-L3": "QQYHRLPLS", "log10 Kd, replicates": "1.50 2.07 1.94 1.63 1.55 0.81", "empty controls": "1/18 (3.39)"}
{"CDR-L1": "KLSQSVLYEQRNKNNVA", "CDR-L2": "HASTRES", "CDR-L3": "QQYHRLPLS", "log10 Kd, replicates": "-0.06 -0.43 -0.32 -0.60 -0.34 -0.29", "empty controls": "0/18"}
{"CDR-L1": "KLSQSVLMESRNKNSVA", "CDR-L2": "NASTRCS", "CDR-L3": "QQYHRLPLS", "log10 Kd, replicates": "-0.10 -0.03 -0.20 -0.09 -0.32 0.00", "empty controls": "0/18"}
{"CDR-L1": "KVMQSQLYESRNKNSVA", "CDR-L2": "NASTRES", "CDR-L3": "QQYHRLPLS", "log10 Kd, replicates": "0.21 -0.01 0.13 -0.30 0.07 0.16", "empty controls": "0/18"}
{"CDR-L1": "KLMQSELYESRNKNSVA", "CDR-L2": "NASQRMS", "CDR-L3": "QQYHRLPLS", "log10 Kd, replicates": "0.33 -0.09 -0.09 -0.09 -0.14 0.21", "empty controls": "1/18 (2.37)"}
{"CDR-L1": "KLSQSQLYESRNKNSVA", "CDR-L2": "QASTRES", "CDR-L3": "QDYHRLPLS", "log10 Kd, replicates": "0.75 1.11 0.80 0.42 0.55 0.61", "empty controls": "0/18"}
{"CDR-L1": "KHSQSVLYESRNKNSVA", "CDR-L2": "GASTRES", "CDR-L3": "QQYHRLPLS", "log10 Kd, replicates": "0.93 1.13 0.67 1.15 1.17 1.14", "empty controls": "0/18"}
{"CDR-L1": "KLSQSVLYESRNSNSVA", "CDR-L2": "GASTRES", "CDR-L3": "QQYHRLPLS", "log10 Kd, replicates": "0.81 0.72 1.77 0.76 0.87 1.27", "empty controls": "0/18"}
{"CDR-L1": "KLEQSDPYESRNKNSVA", "CDR-L2": "NASTRES", "CDR-L3": "QQYHRLPLS", "log10 Kd, replicates": "0.13 -0.29 -0.30 -0.15 -0.33 -0.02", "empty controls": "2/18 (3.57)"}
{"CDR-L1": "KLMQSWLYESRNKNSVA", "CDR-L2": "NASTRED", "CDR-L3": "QQYHRLPLS", "log10 Kd, replicates": "0.09 0.07 0.03 -0.17 0.05 0.20", "empty controls": "1/18 (3.26)"}
{"CDR-L1": "KLSQSVLYESRNKNSVA", "CDR-L2": "NASTRES", "CDR-L3": "QQYHRLPLY", "log10 Kd, replicates": "-0.20 -0.34 -0.35 -0.39 -0.53 -0.16", "empty controls": "0/18"}
{"CDR-L1": "KVSQSDLYESRNKNSVA", "CDR-L2": "HASTRES", "CDR-L3": "QQYHRLPLS", "log10 Kd, replicates": "0.15 -0.12 -0.12 -0.07 -0.29 -0.13", "empty controls": "2/18 (2.98)"}
{"CDR-L1": "KLSQSVMYESRNKNSVA", "CDR-L2": "NASTREV", "CDR-L3": "QQYHRLPLS", "log10 Kd, replicates": "-0.09 -0.37 -0.51 -0.38 -0.37 -0.30", "empty controls": "2/18 (2.67)"}
{"CDR-L1": "KLSQSVLYESRNFNSVA", "CDR-L2": "NASQRES", "CDR-L3": "QQYHRLPLS", "log10 Kd, replicates": "0.64 0.58 0.62 0.33 0.28 0.45", "empty controls": "1/18 (2.06)"}
{"CDR-L1": "KLSGSVLYESRNKNAVA", "CDR-L2": "NASTRES", "CDR-L3": "QQYHRLPLS", "log10 Kd, replicates": "-0.19 -0.46 -0.33 -0.42 -0.36 -0.33", "empty controls": "0/18"}
{"CDR-L1": "KLSQSVLMESRNKNSVA", "CDR-L2": "EASTREE", "CDR-L3": "QQYHRLPLS", "log10 Kd, replicates": "0.33 0.09 -0.10 0.02 0.08 -0.06", "empty controls": "1/18 (2.95)"}
{"CDR-L1": "KLSQSVLYEQRNKNSVA", "CDR-L2": "NASTRLS", "CDR-L3": "QQYHRLPLS", "log10 Kd, replicates": "0.02 -0.01 -0.24 -0.13 -0.18 0.20", "empty controls": "2/18 (2.99)"}
{"CDR-L1": "KVQQSVLYESRNKNSVA", "CDR-L2": "NASQRES", "CDR-L3": "QQYHRLPLS", "log10 Kd, replicates": "-0.06 -0.15 -0.20 -0.46 -0.13 0.01", "empty controls": "0/18"}
{"CDR-L1": "KVSQSVLYESRNKNSVA", "CDR-L2": "ESSTRES", "CDR-L3": "QQYHRLPLS", "log10 Kd, replicates": "-0.30 -0.51 -0.41 -0.38 -0.45 -0.68", "empty controls": "0/18"}
{"CDR-L1": "KFSQSDLYESRNKNSVA", "CDR-L2": "EASTRCS", "CDR-L3": "QQYHRLPLS", "log10 Kd, replicates": "-0.05 -0.12 -0.18 -0.28 -0.21 -0.06", "empty controls": "0/18"}
{"CDR-L1": "KLSQSYLYESRNKNSVA", "CDR-L2": "NASTRES", "CDR-L3": "QAYHRLPLS", "log10 Kd, replicates": "0.17 0.07 0.24 -0.01 -0.15 -0.01", "empty controls": "1/18 (2.42)"}

Excerpt, the final 4 entries:

{"CDR-L1": "KVQQSVLYESRNKNSVA", "CDR-L2": "NASQRES", "CDR-L3": "QQYHRLPLS", "log10 Kd, replicates": "-0.06 -0.15 -0.20 -0.46 -0.13 0.01", "empty controls": "0/18"}
{"CDR-L1": "KVSQSVLYESRNKNSVA", "CDR-L2": "ESSTRES", "CDR-L3": "QQYHRLPLS", "log10 Kd, replicates": "-0.30 -0.51 -0.41 -0.38 -0.45 -0.68", "empty controls": "0/18"}
{"CDR-L1": "KFSQSDLYESRNKNSVA", "CDR-L2": "EASTRCS", "CDR-L3": "QQYHRLPLS", "log10 Kd, replicates": "-0.05 -0.12 -0.18 -0.28 -0.21 -0.06", "empty controls": "0/18"}
{"CDR-L1": "KLSQSYLYESRNKNSVA", "CDR-L2": "NASTRES", "CDR-L3": "QAYHRLPLS", "log10 Kd, replicates": "0.17 0.07 0.24 -0.01 -0.15 -0.01", "empty controls": "1/18 (2.42)"}